# Test results as given in PubChem BioAssay AID588475 (Sanford-Burnham Center for Chemical Genomics, 2011).
# Only a part is listed here, and it is no random draw. Activity calls are given as the source filed them.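 The calls were made as follows: active = inhibition of the ligand-induced calcium signal above about 50% at the single tested concentration (limit read from the data); inactive = the rest.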
# Assay: blockers of CRF-evoked CRF-R2/CRF-BP calcium response – cell-based, HEK293, calcium dye fluorescence, uHTS, primary screen (AID 588475)
# Details: CRF-induced calcium fluorescence, at 11.8 µM, stronger effect = higher value
row,SMILES,inhibition
1,CCC(=O)N(c1ccccc1)C1(COC)CCN(CCn2nnn(CC)c2=O)CC1,inactive: 3.31%
2,CCC(=O)N(c1ccccc1)C1(COC)CCN(CCc2cccs2)CC1,inactive: -5.95%
